Source: ChEMBL document CHEMBL1156628, “Further studies on lead compounds containing the opioid pharmacophore Dmt-Tic” (J Med Chem, 2008)

Chains of the proteins cited; added tags and fusions are not shown.
UniProt P32300, whole entry: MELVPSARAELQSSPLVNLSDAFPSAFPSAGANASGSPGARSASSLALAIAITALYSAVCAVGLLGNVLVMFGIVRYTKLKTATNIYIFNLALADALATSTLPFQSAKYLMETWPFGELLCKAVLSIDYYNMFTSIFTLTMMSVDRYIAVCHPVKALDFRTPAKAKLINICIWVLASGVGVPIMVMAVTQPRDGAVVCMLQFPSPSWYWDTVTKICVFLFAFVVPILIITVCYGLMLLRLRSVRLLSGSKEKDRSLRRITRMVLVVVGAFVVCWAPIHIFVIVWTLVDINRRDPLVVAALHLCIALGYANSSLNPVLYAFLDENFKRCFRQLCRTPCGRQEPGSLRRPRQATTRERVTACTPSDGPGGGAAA

Biological target: Delta-type opioid receptor (Mus musculus, UniProt P32300)
Test: Agonist activity at mu opioid receptor in Hartley guinea pig ileum myenteric plexus longitudinal muscle assessed as inhibition of electrically-stimulated muscle contraction
Assay type: functional, tissue-based

Cc1cc(O)cc(C)c1C[C@H](N)C(=O)N1Cc2ccccc2C[C@H]1C(=O)NCc1nc2ccccc2[nH]1
IC50: 0.13 nM
